The numbers were not newly measured in US12239707B2, “Photodynamic compositions and methods of use” (MT RESEARCH, LLC, priority 2018, dated 2025), which cites them from elsewhere.

The subject of this series is SKOV-3/luc tumors.

Regarding “IR700 conjugated with trastuzumab: IR700 conjugated with trastuzumab, photoimmunotherapy agent (Sato and coworkers)”, where the note is “day 4 post light treatment, 100 J/cm2 NIR light”, the “relative luminescence units (RLU) compared to NIR-treated mice” value was “lower”. The “relative luminescence units (RLU)” value (day 14, 100 J/cm2 NIR light at day zero) was “recovered to post-treatment levels”.
